The target in the experiment is insulin receptor (IR), B-isoform (UniProt P06213). The experiment is described as follows: receptor binding affinity; displacement of 125I-human insulin from isolated IR isoform B, two-site sequential model. A general note: In a radioligand displacement assay an active substance lowers the binding of a labelled ligand.

One substance from patent US20120220522A1, “ESTER INSULIN” (priority 2009, published 2012) can be followed below.

One may read the Kd as the constant that tells how readily two partners part at equilibrium. A higher Kd goes with a looser complex. For the substance “mature insulin lispro (3) derived from ester insulin lispro (ligand)”, the Kd turned out to be 44 pM.
